Reference: patent publication US7220780B2, “Naaladase inhibitors for treating retinal disorders and glaucoma” (Guilford Pharmaceuticals Inc., priority 2000, dated 2007)

Protein sequences, listed by entry. Tags and fused reporters are not part of them.
UniProt P70627, whole entry: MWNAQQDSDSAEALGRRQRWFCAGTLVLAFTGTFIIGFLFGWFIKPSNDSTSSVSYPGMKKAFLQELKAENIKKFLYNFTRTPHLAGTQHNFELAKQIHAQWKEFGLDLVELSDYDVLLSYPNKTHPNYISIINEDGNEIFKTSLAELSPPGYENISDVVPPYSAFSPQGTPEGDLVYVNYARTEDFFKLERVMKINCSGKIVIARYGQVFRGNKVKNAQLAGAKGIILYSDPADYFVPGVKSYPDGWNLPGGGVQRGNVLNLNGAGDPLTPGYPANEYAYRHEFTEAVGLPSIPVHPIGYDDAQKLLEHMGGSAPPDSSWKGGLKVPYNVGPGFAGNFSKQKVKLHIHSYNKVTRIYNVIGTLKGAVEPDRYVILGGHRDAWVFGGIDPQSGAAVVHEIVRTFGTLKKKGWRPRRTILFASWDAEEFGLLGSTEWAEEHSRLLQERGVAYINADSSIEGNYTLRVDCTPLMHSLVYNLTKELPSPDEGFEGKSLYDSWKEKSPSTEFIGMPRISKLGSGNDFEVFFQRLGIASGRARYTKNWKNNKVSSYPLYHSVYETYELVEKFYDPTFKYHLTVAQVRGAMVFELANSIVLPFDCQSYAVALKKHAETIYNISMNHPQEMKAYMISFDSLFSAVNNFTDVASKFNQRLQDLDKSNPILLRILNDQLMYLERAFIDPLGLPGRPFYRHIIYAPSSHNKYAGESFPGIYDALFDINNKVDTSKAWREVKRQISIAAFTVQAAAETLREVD

Target: NAALADase (Rattus norvegicus, UniProt P70627)
Assay: In vitro inhibition of NAALADase activity
Format: biochemical

4′-(2-carboxy-5-mercaptopropyl)-[1,1′-biphenyl]-2-carboxylic acid
IC50: 87 nM
